The text below walks through data of patent US20050058640A1 (BAXTER INTERNATIONAL, published 2005).

Chains of the proteins cited; added tags and fusions are not shown.
UniProt P00742, whole entry, looked up: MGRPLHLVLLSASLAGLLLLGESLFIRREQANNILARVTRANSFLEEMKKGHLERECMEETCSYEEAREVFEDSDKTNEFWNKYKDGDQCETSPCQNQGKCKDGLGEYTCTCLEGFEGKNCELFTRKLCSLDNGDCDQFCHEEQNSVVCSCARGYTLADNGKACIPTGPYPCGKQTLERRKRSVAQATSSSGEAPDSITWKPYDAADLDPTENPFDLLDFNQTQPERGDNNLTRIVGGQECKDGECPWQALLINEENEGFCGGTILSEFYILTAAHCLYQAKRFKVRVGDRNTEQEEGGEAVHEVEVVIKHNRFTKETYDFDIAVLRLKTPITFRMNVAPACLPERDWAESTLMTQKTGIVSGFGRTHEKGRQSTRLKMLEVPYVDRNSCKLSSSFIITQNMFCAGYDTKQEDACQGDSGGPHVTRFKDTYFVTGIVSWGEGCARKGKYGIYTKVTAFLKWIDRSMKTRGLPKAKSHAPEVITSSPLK

In general, KM refers to the substrate concentration at which the rate is half of its maximum. As usually defined, the kcat is the number of substrate molecules converted per active site and unit of time at saturation. The term kcat/KM denotes the second-order rate constant that governs catalysis at low substrate concentration.

This series concerns the target human factor X (UniProt P00742).

Consider human factor IXa, for which the Michaelis constant (KM) was found to be 0.0342 µM, the Vmax of FX activation is 0.063 nM/min, the catalytic constant (kcat) was 9.5e-05 s⁻¹ and the kcat/KM is 2670 M⁻¹ s⁻¹.
